Measured values as given in patent publication US9345703B2, “Kappa opioid receptor effectors and uses thereof” (University of Kansas, priority 2011, dated 2016).

Chains of the proteins cited; added tags and fusions are not shown.
UniProt P41145, whole entry: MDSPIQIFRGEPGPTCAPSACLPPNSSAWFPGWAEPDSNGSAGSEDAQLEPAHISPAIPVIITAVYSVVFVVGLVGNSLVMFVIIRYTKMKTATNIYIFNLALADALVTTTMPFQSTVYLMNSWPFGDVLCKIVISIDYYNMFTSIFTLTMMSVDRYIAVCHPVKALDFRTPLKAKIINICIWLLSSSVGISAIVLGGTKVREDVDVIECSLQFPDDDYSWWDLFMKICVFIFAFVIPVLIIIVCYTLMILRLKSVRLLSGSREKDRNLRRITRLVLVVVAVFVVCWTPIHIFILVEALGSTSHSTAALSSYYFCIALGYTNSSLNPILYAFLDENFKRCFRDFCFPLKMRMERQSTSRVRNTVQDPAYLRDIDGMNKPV

Target: KOR (Homo sapiens, UniProt P41145)
Experiment: DISCOVERX β-arrestin […] assay, agonist mode (KOR DRx)
Assay type: cell-based

FC(F)(F)c1cc(CSc2nnc(-c3ccccn3)n2Cc2cccnc2)ccc1Cl
EC50 (read-out: Potency, EC50 (DRx), agonist, n = 4, Table 11): 500 nM

C(=Cc1ccccc1)CSc1nnc(-c2ccccn2)n1Cc1ccco1
Emax (%) (at highest concentration tested, compared to dynorphin A (Emax=100%)): ~100%
